# Experimental data published in patent publication US20260248920A1, “COMPOSITION FOR PREVENTING OR TREATING INFLAMMATORY DISEASES, CONTAINING POLY(ORGANOPHOSPHAZENE) POLYMER” (KOREA INSTITUTE OF SCIENCE AND TECHNOLOGY, priority 2022, published 2026).
# System: NIH3T3 fibroblast cell line
# Settings: 625 μg/ml
compound,measurement,value
"Cc1ccc(-c2cc(C(F)(F)F)nn2-c2ccc(S(N)(=O)=O)cc2)cc1 [CXB, Celecoxib]",cytotoxicity,high cytotoxicity
